Consider one substance from patent publication US9782411B2, “{4-[5-(3-chloro-phenoxy)-oxazolo[5,4-d]pyrimidin-2-yl]-2,6-dimethyl-phenoxy}-acetic acid for use in the prevention or treatment of acute kidney injury” (Sanofi, priority 2013, dated 2017).

Protein sequences, listed by entry. Tags and fused reporters are not part of them.
UniProt P21453, whole entry: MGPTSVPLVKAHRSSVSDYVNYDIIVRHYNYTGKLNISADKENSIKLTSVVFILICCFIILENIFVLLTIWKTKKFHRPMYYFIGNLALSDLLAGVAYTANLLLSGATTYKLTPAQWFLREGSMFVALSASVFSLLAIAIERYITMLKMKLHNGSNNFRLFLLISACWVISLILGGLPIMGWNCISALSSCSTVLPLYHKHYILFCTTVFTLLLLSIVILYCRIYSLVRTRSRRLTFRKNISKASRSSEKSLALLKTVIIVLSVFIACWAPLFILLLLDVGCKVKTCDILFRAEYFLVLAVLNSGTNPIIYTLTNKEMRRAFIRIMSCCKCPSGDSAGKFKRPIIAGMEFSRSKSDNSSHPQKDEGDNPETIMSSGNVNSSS

pEC50: −log10 of the molar value.

In assay [1] the target is T1, S1P1 (Homo sapiens, UniProt P21453). Put plainly: GTPγS assay, CHO. The format is biochemical. Set-up: host or cells: CHO (PathHunter). The settings on record: 0% proteins in assay media.
The target in assay [2] is T1, S1P1. Put plainly: FLIPR calcium assay, ChemiScreen cells (GPCRProfiler, Millipore). The format is cell-based. The settings on record: ChemiScreen cells over-expressing human S1P1; 0% proteins in assay media; read-out: EC50, FLIPR, Chem cells. From the text: The GPCRProfiler® assay from Millipore was used to determine the EC50 activity of compound A, BAF-312 and fingolimod on S1P1, S1P2, S1P3, S1P4 or S1P5 receptors. These assays used ChemiScreen GPCR stable cell lines.

Assay [3] addresses T1, S1P1. Put plainly: cAMP HTRF assay in forskolin-treated HUVEC. Set-up: host or cells: HUVEC (primary). The format is cell-based. Conditions: 0.1% BSA. On the procedure: Cyclic AMP in response to compound A, BAF-312 or fingolimod was assessed in Forskolin-treated HUVEC cells by the mean of the cAMP HTRF® kit (Cisbio). Briefly, HUVEC (Lonza) were seeded at 5×10^3 cells per well into a white 96 multiwell plate (half volume) for 24 hours in EGM2 medium (Lonza). At the beginning of the experiment, EGM2 medium was replaced by assay buffer consisting in HBSS containing Hepes (10 mM), BSA (0.1%) and IBMX (0.5 mM). Cells were allowed to recover during 15 min. Compound A, BAF-312 or fingolimod (10 nM-100 μM) were added to the cells for 15 min followed by addition of forskolin (FSK, 10 μM). After 45 min of FSK treatment, reaction was stopped by addition of MAb anti-cAMP-cryptate and cAMP-D2 for 1 hour. At the end of the incubation, fluorescence was read (Envision, Perkin Elmer) and FRET ratio calculated according to assay kit protocol. The potency of compound A, BAF-312 or fingolimod (EC50) was calculated using the Sanofi BIOST@T-SPEED software according to the logistic equation model.
(In TR-FRET formats the signal depends on donor and acceptor labels being close together.)

Assay [4] addresses T1, S1P1. Put plainly: Impedance assay in HUVEC. The format is cell-based. Conditions: 2% FBS. The arrangement: host or cells: HUVEC (primary). On the procedure: On day 1, primary cells were seeded into 96-well e-plates pre-coated with collagen-I with 20,000 cells per well. […] After incubation with the S1PR agonists, the cells were carefully washed twice with medium followed by a 5.5 h recovery period. Then the effect of the preceding 1st stimulation on receptor desensitization was assessed using a 2nd stimulation of increasing S1P concentrations (0.1, 1 and 10 μM) and measuring the resulting impedance. All measurements were done at least in triplicates. […] Results are expressed in arbitrary impedance unit as mean+/−s.e.m.

Assay [5] concerns the target T1, S1P1. In words: PathHunter activated GPCR internalization assay, CHO. Format: cell-based. The arrangement: host or cells: CHO (PathHunter). The settings on record: 0.5% FBS; starred values are means of 2 separate experiments. On the procedure: The PathHunter® Activated GPCR Internalization Assay from DiscoverX was used to determine the EC50 activity of compound A, BAF-312 and fingolimod on the S1P1 receptor. The compounds were tested in assay medium containing 0.5% FBS.

The target in assay [6] is T1, S1P1. Put plainly: PathHunter β-arrestin assay, CHO. Conditions: 0.5% FBS; starred values are means of 2 separate experiments. Format: cell-based. Set-up: host or cells: CHO (PathHunter). On the procedure: The PathHunter® β-Arrestin Assay from DiscoverX was used to determine the EC50 activity of compound A, BAF-312 and fingolimod on S1P1, S1P2, S1P3, S1P4 or S1P5 receptors. The compounds were tested in assay medium containing 0.5% FBS.

Assay [7] deals with T2, hS1P1-G-fusion (Homo sapiens, UniProt P21453).
T2 construct: fused on or other part: Modified G-protein alpha subunit (G alpha i4qi4) fused to the receptor's C-terminus to force coupling to calcium release
Put plainly: Calcium mobilization (FlipR) assay in CHO cells. Format: cell-based. The settings on record: CHO over-expressing human S1P1 (G-fusion); 0% proteins in assay media.

What is called pEC50 is the EC50 on a negative log10 scale, so that one unit is a factor of ten. On to Fingolimod phosphate, for which the pEC50 is 8.30 in assay [1]; 7.59 in assay [2]; 6.88 in assay [3]; 9.92 in assay [4]; 8.57 in assay [5]; 8.15 in assay [6]. Besides, in assay [7], the pEC50 is 9.85.
